Reference: patent US6686388B2, “Regulators of the hedgehog pathway, compositions and uses related thereto” (priority 1999, dated 2004)

Tested on: medulloblastoma cells from ptc knockout mice
Details: […] once-daily intraperitoneal

CC1=C2C[C@H]3[C@@H](CC=C4C[C@@H](O)CC[C@@]43C)[C@@H]2CC[C@]12O[C@@H]1C[C@H](C)CN[C@H]1[C@H]2C [cyclopamine]
appearance of treated mice: appeared healthy
